ALR inh = inhibitors of human ALR sulfhydryl oxidase, primary screen, biochemical, H2O2 detection, HRP-luminol luminescence, single point | FAD-linked sulfhydryl oxidase ALR (Homo sapiens), P55789 | purified ALR, DTT oxidation | inhibition, % (concentration not given with the values) | actives 3.8% (n = 290,000) | AID 485317, 2010;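 active = mean and each replicate at 75% or more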;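 also: stock transfer was 7.5 nL into about 7.5 µL; 0% = neutral wells and 100% = wells with inactivated enzyme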
HDAC3 inh = human HDAC3 inhibition. AID 2718. inhibition, % at 8.3 µM. hit rate 0.15% among 320,000. recombinant HDAC3, fluorogenic peptide/trypsin coupled, fluorescence. O15379; in the data active = inhibition above about 26%, passing the limit was not always enough; inconclusive = no clear call, values can overlap the other calls
NALP1 inh = NALP1 inhibition | inhibition, % at 10 µM | hit rate 0.61% among 280,000 | S. cerevisiae NALP1/ASC/caspase-1 growth, X-gal OD620, 72 h; in the data active = inhibition mostly above about 24%, no sharp cut-off; inactive = mostly below about 32%
MC4R antag cAMP = antagonists of human melanocortin 4 receptor (MC4R). P32245. MC4R-expressing cells, MTII-stimulated cAMP, LANCE TR-FRET. inhibition, % at 6.5 µM. hit rate 0.48% among 360,000. AID 540295;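 active = inhibition above its plate's cutoff, the mean of tested wells on that plate plus 3 SD, cut at about 29% in these data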;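 note: 0% = Melanotan II alone and 100% = Melanotan II plus saturating MCL0020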
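System – human MC4R-expressing U2OS cells · Also added – Melanotan II · Dosing – one concentration, 6.5 µM nominal · Timing – 30-min compound, 1-h challenge, 1-h detection, room temperature · Measured by – Eu-cAMP/anti-cAMP TR-FRET, emission 671 nm · Replicates – singlicate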
MC4R ag barr = activates human MC4R beta-arrestin recruitment; U2OS MC4R beta-arrestin complementation, luminescence; percent of melanotan II response, DMSO zero; hit rate 0.98% among 360,000; AID 540308; activation, % at 8.9 µM; P32245;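 active = activation above a per-plate cutoff, the mean activation of sample wells on that plate plus 3 SD, cut at about 8% in these data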
Yeast UUG start = modulators of yeast start codon fidelity, primary screen, whole organism, S. cerevisiae, single point, plate reader | AID 602363, 2012 | actives 0.13% (n = 350,000) | activity score, % at 18.7 µM | S. cerevisiae UUG-firefly luciferase reporter, luminescence/redox ratio;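 active means replicate mean at a twofold rise or more, about +100% in these data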;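 further: firefly luciferase made from a UUG start codon reports start codon fidelity; reporter light over untreated wells divided by growth signal over untreated wells; some hits fall short of that in this replicate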
MC4R barr ag = human MC4R beta-arrestin agonism confirmation | hit rate 31% among 2,400 | shares compounds with MC4R ag barr | U2OS MC4R beta-arrestin recruitment, luminescence; scaled DMSO 0%, Melanotan II 100% | AID 602192 | activation, % at 8.9 µM;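 active = mean activation across replicates above the hit cutoff set in the earlier primary screen, cut at about 8% in these data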
MOR-DOR barr ag = activates mu-delta opioid heterodimer, MC4R agonist counter-screen; shares compounds with MC4R ag barr; U2OS PathHunter beta-arrestin, beta-gal luminescence; percent of deltorphin B response, DMSO zero; activation, % at 9.2 µM; hit rate 5.8% among 2,400; AID 602194;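 active = mean activation across replicates exceeds the hit threshold derived in the earlier primary screen, cut at about 18% in these data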;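 note: 100% = deltorphin B at 0.9 µM final and 0% = DMSO alone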
* = called active by the depositor. The list is not random: actives were taken first. Their share in the collection is about 4.2%.

C[C@@H]1CN([C@H](C)CO)C(=O)c2cc(NC(=O)c3ccncc3)ccc2O[C@@H](C)CCCCO[C@H]1CN(C)C(=O)Nc1ccc2c(c1)OCO2 was read as Yeast UUG start 2.7.
O=C(C[C@@H]1CC[C@@H]2[C@H](COC[C@H](O)CN2C(=O)Nc2cc(Cl)cc(Cl)c2)O1)N1CCCCC1 was read as Yeast UUG start 4.6.
`COc1ccc(NC(=O)Nc2ccc3c(c2)C(=O)N([C@@H](C)CO)C[C@H](C)[C@@H](CN(C)C(=O)Nc2ccc(C(F)(F)F)cc2)OCCCC[C@H](C)O3)cc1` gave Yeast UUG start -17.5.
`CC(=O)NCC1COc2ccccc2O1` (stereo not drawn) gave ALR inh 0.0, HDAC3 inh -6.1, MC4R antag cAMP -0.3, MC4R ag barr -2.3 and Yeast UUG start -26.2.
For CC(C)Oc1ccc(/C=C/C(=O)NCC2COc3ccccc3O2)cc1 (stereo not drawn) the results were ALR inh -0.1, HDAC3 inh 8.5, NALP1 inh 3.6, MC4R antag cAMP 3.7, MC4R ag barr 10.3*, MC4R barr ag 1.3 and MOR-DOR barr ag 3.4.
O=C(C[C@@H]1C=C[C@H](NC(=O)Nc2ccc(C(F)(F)F)cc2)[C@@H](CO)O1)NCCN1CCCC1 was read as Yeast UUG start -9.0.
`Cc1c(CCOC(=O)C2C3CC4CC(C3)CC2C4)sc[n+]1CC(=O)c1ccc(Br)cc1` (stereo not drawn) gave ALR inh -3.1, HDAC3 inh 11.8, NALP1 inh -0.5, MC4R antag cAMP -0.2, MC4R ag barr 7.1 and Yeast UUG start -3.7.
`Cc1c(CCOC(=O)c2ccc(Cl)cc2Cl)sc[n+]1CC(=O)c1ccc(Br)cc1` gave ALR inh 23.4, HDAC3 inh 5.3, MC4R antag cAMP 8.2, MC4R ag barr 27.7*, Yeast UUG start -2.2, MC4R barr ag 23.0* and MOR-DOR barr ag 23.0*.
For Fc1ccc(-c2nnsc2Sc2ccccn2)cc1 the results were ALR inh 3.0, HDAC3 inh -3.5, NALP1 inh -0.2, MC4R antag cAMP 0.6, MC4R ag barr 12.2*, MC4R barr ag -1.1 and MOR-DOR barr ag 2.8.
Screening COc1ccc(S(=O)(=O)Nc2ccc3c(c2)C(=O)N([C@H](C)CO)C[C@@H](C)[C@H](CN(C)S(=O)(=O)c2ccc(OC)cc2)OCCCC[C@H](C)O3)cc1 returned Yeast UUG start -4.0.
COc1cc(C(=O)OCC(=O)Nc2cc(C)on2)ccc1OCc1ccccc1Cl was read as ALR inh 6.0, HDAC3 inh -2.8, NALP1 inh -5.3, MC4R antag cAMP 16.3, MC4R ag barr 18.0*, Yeast UUG start -13.4, MC4R barr ag 2.7 and MOR-DOR barr ag 1.6.
Screening COc1ccc(NC(=O)COC(=O)c2ccc(OCc3ccccc3Cl)c(OC)c2)c(OC)c1 returned ALR inh 0.7, HDAC3 inh 2.9, NALP1 inh 8.0, MC4R antag cAMP 2.2, MC4R ag barr 3.0 and Yeast UUG start 1.7.
Cc1cc(C)n(CC(O)Cn2c3ccc(Cl)cc3c3cc(Cl)ccc32)c(=O)n1 (stereo not drawn) was read as ALR inh -11.2, HDAC3 inh inconclusive, NALP1 inh 18.6, MC4R antag cAMP 5.3, MC4R ag barr 1.8 and Yeast UUG start -21.9.
For OC(CNCCC1C=Nc2ccccc21)Cn1c2ccc(Cl)cc2c2cc(Cl)ccc21 (stereo not drawn) the results were ALR inh -32.3, HDAC3 inh 45.9*, NALP1 inh 101.1*, MC4R antag cAMP -4.4, MC4R ag barr 17.2*, Yeast UUG start -9.2, MC4R barr ag 5.2 and MOR-DOR barr ag 31.2*.
For CCCC(=O)Nc1ccc2c(c1)OC[C@@H](C)N(C(=O)CC1CC1)C[C@H](C)[C@H](OC)CN(C)C2=O the results were Yeast UUG start -5.8.

Structures listed so far containing a CF3 group, in the order listed:
`COc1ccc(NC(=O)Nc2ccc3c(c2)C(=O)N([C@@H](C)CO)C[C@H](C)[C@@H](CN(C)C(=O)Nc2ccc(C(F)(F)F)cc2)OCCCC[C@H](C)O3)cc1` gave Yeast UUG start -17.5.
O=C(C[C@@H]1C=C[C@H](NC(=O)Nc2ccc(C(F)(F)F)cc2)[C@@H](CO)O1)NCCN1CCCC1 was read as Yeast UUG start -9.0.

Source: PubChem BioAssay
